Values quoted from earlier work, collected in patent US5167824A, “Separation by carrier mediated transport” (priority 1990, dated 1992).

Details: therapeutic / anti-inflammatory; cited from earlier work

## COc1ccc2cc([C@H](C)C(=O)O)ccc2c1 [naproxen, (+) S-2-(6-methoxy-2-naphthyl) propionic acid]
  potency ratio S(+) vs R(-) enantiomer: 28 times
